Source: ChEMBL document CHEMBL1908284, “Rational use of in vitro P-glycoprotein assays in drug discovery” (J Pharmacol Exp Ther, 2001)

The chains behind the UniProt entries cited, without tags or fusion partners.
UniProt P08183, whole entry: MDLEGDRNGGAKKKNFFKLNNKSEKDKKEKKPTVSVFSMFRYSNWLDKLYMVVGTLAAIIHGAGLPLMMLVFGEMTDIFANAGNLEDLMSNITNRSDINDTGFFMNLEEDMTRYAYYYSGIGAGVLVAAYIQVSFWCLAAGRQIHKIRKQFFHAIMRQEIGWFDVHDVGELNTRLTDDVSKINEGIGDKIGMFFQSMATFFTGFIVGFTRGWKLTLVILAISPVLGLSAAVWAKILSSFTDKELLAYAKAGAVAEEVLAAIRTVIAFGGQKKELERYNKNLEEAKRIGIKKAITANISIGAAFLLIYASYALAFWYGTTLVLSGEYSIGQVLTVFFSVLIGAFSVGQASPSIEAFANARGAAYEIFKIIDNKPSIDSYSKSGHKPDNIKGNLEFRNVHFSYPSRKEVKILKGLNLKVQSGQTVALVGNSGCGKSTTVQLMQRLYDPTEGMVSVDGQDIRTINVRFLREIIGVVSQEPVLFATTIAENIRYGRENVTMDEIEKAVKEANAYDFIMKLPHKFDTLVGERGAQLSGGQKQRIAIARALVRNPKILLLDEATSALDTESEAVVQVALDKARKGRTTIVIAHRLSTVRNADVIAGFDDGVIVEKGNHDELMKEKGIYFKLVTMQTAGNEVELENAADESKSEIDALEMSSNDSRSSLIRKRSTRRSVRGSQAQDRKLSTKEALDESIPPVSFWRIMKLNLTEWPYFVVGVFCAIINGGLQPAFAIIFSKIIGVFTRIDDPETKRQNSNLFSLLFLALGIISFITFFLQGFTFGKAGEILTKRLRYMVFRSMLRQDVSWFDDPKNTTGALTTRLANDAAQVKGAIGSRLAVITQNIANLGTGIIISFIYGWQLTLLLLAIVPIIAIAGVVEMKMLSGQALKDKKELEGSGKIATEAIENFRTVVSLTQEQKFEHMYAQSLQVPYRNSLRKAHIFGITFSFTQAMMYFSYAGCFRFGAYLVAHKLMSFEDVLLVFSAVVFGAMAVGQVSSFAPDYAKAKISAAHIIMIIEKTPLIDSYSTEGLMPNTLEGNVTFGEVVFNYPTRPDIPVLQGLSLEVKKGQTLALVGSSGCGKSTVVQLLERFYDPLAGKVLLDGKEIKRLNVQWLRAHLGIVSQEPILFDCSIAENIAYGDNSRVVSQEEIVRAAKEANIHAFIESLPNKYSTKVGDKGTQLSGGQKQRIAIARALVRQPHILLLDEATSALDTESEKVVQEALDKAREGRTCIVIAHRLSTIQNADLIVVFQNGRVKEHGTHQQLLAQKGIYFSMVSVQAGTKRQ

Target: ATP-dependent translocase ABCB1 (Homo sapiens, UniProt P08183)
Conditions: spodoptera frugiperda, sf9, 20 µM
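Further: Compound-stimulated ATPase activity measured in membrane preparations of MDR1-expressing Sf9 cells.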

Molecule `CCN(CC)CC(=O)Nc1c(C)cccc1C` [LIDOCAINE] has a Ratio_ATPase activity of 1.01.
